Experimental data taken from patent publication US20260224724A1, “GLYCOSYNTHASE VARIANTS FOR ANTIBODY-DRUG CONJUGATE ENGINEERING” (OBI Pharma, Inc., priority 2022, published 2026).

System: SKBR-3
Assay: ADCC reporter bioassay (luciferase reporter effector cells), SKBR-3 target cells
Type: cell-based
Settings: effector:target 3:1, 6 hours induction
Description: The ADCC activity was analyzed by ADCC reporter bioassay complete kit (Promega, G7015) using luciferase reporter cells. The related cell lines MCF7W (OBI-888), SKBR-3 (Herceptin, Perjeta), BxPC3 (Erbitux) and Raji (Rituxan) were selected for the analysis. Cell lines shared with the same procedures. Target cells were seeded at 96-well cell culture plate and incubated overnight at 37° C. in a humidified 5% CO2 incubator. The culture medium was replaced with serial dilution of homogeneous antibody and the corresponding antibody standard in triplicate. In each well, ADCC bioassay effector cells were added. Ratio of effector cell to target cell was 3:1. We performed induction for 6 hours and then added Bio-Glo luciferase assay buffer. After 15 minutes, luminescence (RLU, relative light unit) was determined using microplate reader (SpectraMax L, Molecular Devices, Sunnyvale, CA). The fold change of luminescence induction was calculated by the ratio of relative light unit (RLU) (induced) to RLU (no antibody control). EC50 was determined by plotting x (concentration in μg/mL)-y (the induction of fold change) and fitting the data in a 4PL nonlinear regression model by PRISM 6 Software. Relative potency was estimated by parallel line analysis using Gen5 Microplate Reader and Imager Software (BioTek Instruments).

Herceptin-G2S2: homogeneous Herceptin bearing sialylated complex type N-glycan (G2S2) at Fc N297
EC50 (ADCC assay): 5.10 µg/mL

Herceptin: commercial anti-HER2 monoclonal antibody (Roche) [reference compound]
EC50 (ADCC assay): 15.29 µg/mL
